Assay results taken from patent US12545653B2, “Compound as PPAR agonist and application thereof” (USA Elixiria Biotech Inc., priority 2019, dated 2026).
Where “and” joins values, the source holds several entries; their conditions need not be identical. Identical values can stand only once.

Key:
[1] = Blood-brain barrier permeability: brain concentration after a single injection; conditions: male, rat, in vivo, ip, 10 mg/kg
Protocol: The blood-brain barrier permeability of carbonyl-containing cyclic compounds is determined in in vivo studies. Healthy male rats used in the study were divided into compound group and control group. […] The brains were dissected, heated immediately at boiling water for 2 min, homogenized with methanol, and centrifuged. The upper layer was collected and dried under vacuum to remove solvents, and then resuspended in methanol. The above samples are filtered through a 0.45 micron nylon membrane, and then 20 microL of sample were load into a high-performance liquid chromatographic (HPLC) system (Model LC-16P, Shimadzu, Japan) to perform quantitative analysis. […] For ELB00824, the mobile phases consisted of 75% methanol and 0.4% acetic acid in water (solvent A), and 50% acetonitrile, 37.5% methanol, 12.5% tetrahydrofuran, 0.4% acetic acid in acetonitrile (solvent B).

[2] = high oral doses (10 mg/kg body weight), animal study, reference 1; cited from earlier work

For `CCc1ccc(CCOc2ccc(CC3SC(=O)NC3=O)cc2)nc1` (stereo not shown) [pioglitazone], the Cmax [1] was 2.2 µM and 740 ng/mL.
In the case of `CN(CCOc1ccc(CC2SC(=O)NC2=O)cc1)c1ccccn1` (stereo not shown) [rosiglitazone], the Cmax [1] is given as 1.4 µM and 504 ng/mL, the “time to maximum brain concentration (Tmax)” value [1] is given as 1 h and the “concentration in the brain” value [2] is given as “about 0.7 micromole/L”.
